Results: patent US20230140635A1, “3-(2-(Aminoethyl)-Indol-4-ol Derivatives, Methods of Preparation Thereof, and the Use as 5-HT2 Receptor Modulators” (priority 2020, published 2023)

Protein sequences, listed by entry. Tags and fused reporters are not part of them.
UniProt P28223, whole entry: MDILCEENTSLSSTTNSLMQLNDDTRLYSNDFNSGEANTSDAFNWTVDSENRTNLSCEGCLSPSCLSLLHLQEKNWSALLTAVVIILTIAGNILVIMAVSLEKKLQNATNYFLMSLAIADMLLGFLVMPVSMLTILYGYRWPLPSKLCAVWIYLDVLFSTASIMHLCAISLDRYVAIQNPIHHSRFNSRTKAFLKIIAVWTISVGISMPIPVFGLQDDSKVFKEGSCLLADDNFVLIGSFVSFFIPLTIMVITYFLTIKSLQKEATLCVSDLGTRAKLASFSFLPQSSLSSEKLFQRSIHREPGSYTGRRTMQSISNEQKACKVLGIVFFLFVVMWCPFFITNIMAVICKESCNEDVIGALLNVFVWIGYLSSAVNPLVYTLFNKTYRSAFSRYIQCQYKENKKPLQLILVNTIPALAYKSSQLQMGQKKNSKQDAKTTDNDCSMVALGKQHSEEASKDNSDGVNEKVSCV
UniProt P41595, whole entry: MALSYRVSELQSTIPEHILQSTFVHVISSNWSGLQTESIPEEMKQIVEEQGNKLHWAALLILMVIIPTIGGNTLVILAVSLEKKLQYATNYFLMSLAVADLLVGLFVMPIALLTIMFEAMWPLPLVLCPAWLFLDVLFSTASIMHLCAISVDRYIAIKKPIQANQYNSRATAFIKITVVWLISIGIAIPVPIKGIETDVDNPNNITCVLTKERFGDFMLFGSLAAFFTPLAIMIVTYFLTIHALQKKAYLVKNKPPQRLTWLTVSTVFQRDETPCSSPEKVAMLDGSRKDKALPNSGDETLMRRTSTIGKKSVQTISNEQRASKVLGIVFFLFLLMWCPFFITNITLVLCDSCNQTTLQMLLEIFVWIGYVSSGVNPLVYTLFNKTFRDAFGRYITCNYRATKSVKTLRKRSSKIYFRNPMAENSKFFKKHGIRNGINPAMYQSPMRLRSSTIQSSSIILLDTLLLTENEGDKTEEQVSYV

Tests used:
5-HT2A = 5-HT2A (Homo sapiens, UniProt P28223); test: 5-HT2 Gq-Dissociation BRET assay; format: cell-based; design: expressed in transfected cells; host or cells: HEK293T
5-HT2B = 5-HT2B (Homo sapiens, UniProt P41595); details: read-out: IC50 nM 5-HT2 Gq Dissociation BRET assay, 5-HT2B

## CN(C)CCc1c[nH]c2cccc(O)c12 [Psilocin, psilocin]
5-HT2A
  % efficacy vs 5-HT@ 100%, 5-HT2A: 8.34 nM (82%)
5-HT2B
  IC50: 1.07 nM
